# Test results published in BindingDB's records for PubMed 8226867 (Synaptic Pharmaceutical, 1993).
# Chains of the proteins cited; added tags and fusions are not shown.
# UniProt P34969, whole entry: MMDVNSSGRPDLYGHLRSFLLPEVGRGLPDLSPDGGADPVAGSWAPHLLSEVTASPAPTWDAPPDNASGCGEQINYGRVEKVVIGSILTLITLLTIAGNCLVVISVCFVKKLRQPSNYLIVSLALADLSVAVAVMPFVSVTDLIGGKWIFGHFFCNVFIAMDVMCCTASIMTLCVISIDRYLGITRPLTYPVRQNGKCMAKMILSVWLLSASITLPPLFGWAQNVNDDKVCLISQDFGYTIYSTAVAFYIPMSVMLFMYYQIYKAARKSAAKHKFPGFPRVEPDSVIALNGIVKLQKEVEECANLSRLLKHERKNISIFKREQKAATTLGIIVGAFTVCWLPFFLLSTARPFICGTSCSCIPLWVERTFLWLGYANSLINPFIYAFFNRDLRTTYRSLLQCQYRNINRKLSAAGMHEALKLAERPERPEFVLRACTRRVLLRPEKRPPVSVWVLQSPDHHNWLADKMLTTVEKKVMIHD
# Target: 5-hydroxytryptamine receptor 7 (Homo sapiens, UniProt P34969)
smiles,measurement,value
CCCN(CCC)C1CCc2cccc(O)c2C1 (stereo unspecified),Ki,466 nM
